For two molecules, Ratio IC50 results are on record in ChEMBL document CHEMBL5244269, “Improving metabolic stability and removing aldehyde oxidase liability in a 5-azaquinazoline series of IRAK4 inhibitors” (Bioorg Med Chem, 2020).

SMILES strings stand for the structures.

The species entered for assay [1] is Homo sapiens. Nature of the assay: Selectivity index, ratio of IC50 for inhibition of PI3Kdelta (unknown origin) to IC50 for inhibition of IRAK4 (unknown origin).
Assay [2] is filed under the species Homo sapiens. Nature of the assay: Selectivity index, ratio of IC50 for inhibition of IRAK1 (unknown origin) to IC50 for inhibition of IRAK4 (unknown origin).
For assay [3], the species on record is Homo sapiens. Put plainly: Selectivity index, ratio of IC50 for inhibition of FLT3 (unknown origin) to IC50 for inhibition of IRAK4 (unknown origin).
The species entered for assay [4] is Homo sapiens. Nature of the assay: Selectivity index, ratio of IC50 for inhibition of BTK (unknown origin) to IC50 for inhibition of IRAK4 (unknown origin).
The species entered for assay [5] is Homo sapiens. Nature of the assay: Selectivity index, ratio of IC50 for inhibition of TRKC (unknown origin) to IC50 for inhibition of IRAK4 (unknown origin).
For assay [6], the species on record is Homo sapiens. Put plainly: Selectivity index, ratio of IC50 for inhibition of TRKB (unknown origin) to IC50 for inhibition of IRAK4 (unknown origin).
The species named for assay [7] is Homo sapiens. Nature of the assay: Selectivity index, ratio of IC50 for inhibition of TRKA (unknown origin) to IC50 for inhibition of IRAK4 (unknown origin).

In the case of `Cc1ncc(-c2nc3c(NC(C)C)nc(Nc4cnn(C5CC6(C5)CN(C)C6)c4)nc3cc2F)cn1`, the Ratio IC50 in the assay listed under Homo sapiens [1] was 120; in the assay listed under Homo sapiens [2] it was 600; in the assay listed under Homo sapiens [3] it was 750; in the assay filed under Homo sapiens [4], > 1000; in the assay filed under Homo sapiens [5], 290; in the assay listed under Homo sapiens [6] it was 470. For the same molecule, the Ratio IC50 in the assay listed under Homo sapiens [7] turned out to be 240.
Regarding `Cc1ncc(-c2nc3c(OC4(C)CC4)nc(Nc4cnn(C5CCN(C)CC5)c4)nc3cc2F)cn1`, the Ratio IC50 was 18 in the assay listed under Homo sapiens [1]; 380 in the assay filed under Homo sapiens [2]; > 1000 in the assay listed under Homo sapiens [3]; > 1000 in the assay filed under Homo sapiens [4]; 90 in the assay listed under Homo sapiens [5]; 250 in the assay filed under Homo sapiens [6]. In the assay filed under Homo sapiens [7], the Ratio IC50 amounted to 90.
